According to patent publication US20110028509A1, “Sulfonamides” (MERCK SERONO SA, priority 2008, published 2011):

Key:
[1] = biological target: T1, CXCR3 (Homo sapiens, UniProt P49682); assay: Chemotaxis assay IP10, L1.2 recombinant cells expressing hCXCR3; assay type: cell-based; settings: L1.2 hCXCR3 cells, IP10 around 0.3 nM, 4 hours
T1 sequence (P49682 1-368): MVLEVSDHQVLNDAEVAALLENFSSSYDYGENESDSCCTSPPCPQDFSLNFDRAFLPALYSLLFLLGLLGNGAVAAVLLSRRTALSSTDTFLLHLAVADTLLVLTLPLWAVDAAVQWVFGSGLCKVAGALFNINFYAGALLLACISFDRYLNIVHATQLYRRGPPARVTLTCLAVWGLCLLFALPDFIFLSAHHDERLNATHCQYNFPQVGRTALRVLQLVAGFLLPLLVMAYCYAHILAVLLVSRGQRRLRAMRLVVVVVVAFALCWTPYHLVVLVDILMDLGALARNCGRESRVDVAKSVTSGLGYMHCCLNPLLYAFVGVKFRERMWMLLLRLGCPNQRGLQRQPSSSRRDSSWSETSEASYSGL
Method: Human CXCR3 cDNA was amplified by PCR from a human cells cDNA library (Clontech) and subcloned into pcDNA3.1 (Invitrogen). Murine pre-B L1.2 cells were transfected with hCXCR3-pcDNA3.1 and were grown at 37° C., 5% CO2 in RPMI 1640 medium (Invitrogen, USA) supplemented with 5% heat inactivated fetal calf serum (Cancerra, Australia), 2 mM glutamine (Invitrogen), 50 units ml−1 penicillin, 50 μml−1 streptomycin. Stable transfectant clonal populations were selected using 800 μg/ml geneticin. […]
CXCR3 chemokine was diluted with a serial dilution of compounds in the chemotaxis medium (white RPMI 1640 (invitrogen), 5% Foetal Bovine Serum (invitrogen) at 1% DMSO final (chemotaxis medium). The concentration of the ligand IP10 was determined according to the EC80 to be around 0.3 nM. The chemokine/compounds solution was then added in the lower chamber of a chemotaxis system (neuroprobe). A framed filter (8 uM pore size) was placed on the lower chamber. L1.2 cells were centrifuged and resuspended in chemotaxis medium at 3×10^6 cells/ml and then diluted with the same serial dilution of compounds at 1% DMSO final. […] Cell migration ratio was calculated using the cyquant dye (Molecular Probes-C7026).

[2] = biological target: T1, CXCR3; assay: CXCR3 Ca2+ mobilization (FLIPR), stable hCXCR3-CHO cell line, I-TAC stimulated; assay type: cell-based; set-up: host or cells: CHO cells stably expressing hCXCR3; settings: hCXCR3-CHO cells, I-TAC 100 nM stimulated Ca2+ response; read-out: Ca-ITAC
Method: Human chinese hamster ovary (CHO) cell line stably expressing hCXCR3 was purchased from Euroscreen (Belgium) and culture in HAM's F12 (Invitrogen) containing 10% heat inactivated fetal calf serum (Cancerra, Australia), 50 units ml−1 penicillin, 50 μml−1 streptomycin, (Invitrogen, USA) and 400 μg/ml geneticin (G418) (Calbiochem, San Diego), according to the manufacturer.
CXCR3Ca^2+ mobilization was measured using a stable hCXCR3—CHO cell line and a microtiter-plate based assay using FLIPR^TETRA™ (Molecular Devices). In more detail, cells were harvested and plated into black 384-well plates (Becton-Dickinson) at a density of 15 000 cells per well and grown in the incubator for 18 hours. On the next day the media was aspirated and replaced with the cell loading buffer (HBSS—(Invitrogen) based buffer containing calcium indicator and signal enhancer from a commercial Ca2+ assay kit (Becton Dickinson). The plates were incubated for 60 minutes in the incubator, the test compounds were added and the plates equilibrated for 20 minutes at room temperature.
Plates were placed into FLIPR and the CXCR3 agonist (I-TAC, 100 nM) stimulated fluorescence change was quantitated. The activity of CXCR3 antagonists was determined as percent of the CXCR3 ligand I-TAC in the absence of the test compounds (=100% activity).

IC50 [1]: 0.157 µM
IC50 [2]: 150 nM
SMILES: O=S(=O)(c1ccc(Cl)cc1)N(Cc1ccc(-c2nnn[nH]2)c(F)c1)Cc1ccccc1F [Example 82, 4-chloro-N-(2-fluorobenzyl)-N-[3-fluoro-4-(2H-tetrazol-5-yl)benzyl]benzenesulfonamide]
